target: Programmed cell death protein 1/Programmed cell death 1 ligand 1 (Homo sapiens, UniProt Q9NZQ7)

| Compound | EC50 [nM] |
| --- | --- |
| Cc1c(NC(=O)c2ccc(CNCCCO)cn2)cccc1-c1cccc(NC(=O)c2ccc(CN[C@@H](C)CO)cn2)c1C | 34.4 |
| Cc1c(NC(=O)c2ccc(CN[C@@H](C)CO)cn2)cccc1-c1cccc(NC(=O)c2ccc(CN[C@@H]3CCC[C@H]3O)cn2)c1C | 130 |
| Cc1c(NC(=O)c2ccc(CN3CCN(S(C)(=O)=O)CC3)cn2)cccc1-c1cccc(NC(=O)c2cc(CNCCO)ccn2)c1C | 905 |

From ChEMBL document CHEMBL5532729, “Nonsymmetrically Substituted 1,1'-Biphenyl-Based Small Molecule Inhibitors of the PD-1/PD-L1 Interaction” (ACS Med Chem Lett, 2024)
